# Binding of CDR-mutated scFvs to a peptide of the spike HR2 region

Data: MIT Lincoln Laboratory AlphaSeq set, Li et al. 2023, doi:10.1038/s41467-023-39022-2, as distributed in FLAb.

Antigen: PDVDLGDISGINAS, a 14-residue peptide of the SARS-CoV-2 spike HR2 region.

Ab-14 is the parent antibody, in scFv form: VH, then a 15-residue (Gly4Ser)3 linker, then VL. The heavy chain is unchanged in all variants.
VH: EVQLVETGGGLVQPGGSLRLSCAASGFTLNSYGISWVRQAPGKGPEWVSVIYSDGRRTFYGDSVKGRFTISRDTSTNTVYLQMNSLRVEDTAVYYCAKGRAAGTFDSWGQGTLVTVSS
VL: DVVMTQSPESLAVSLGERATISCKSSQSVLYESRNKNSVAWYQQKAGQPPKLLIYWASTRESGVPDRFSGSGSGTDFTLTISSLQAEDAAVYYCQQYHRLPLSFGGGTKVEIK

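The parent was found by panning a naive human phage display library on the peptide. This is the validation round: designs drawn from the data on random variants, tested in the same kind of assay. Group labels follow the data file (En: ensemble of fine-tuned language models; GP: Gaussian process model; HC: hill climbing; Gen: genetic algorithm; Gibbs: Gibbs sampling; a sequence that several methods proposed may carry one label only). Affinity was read by AlphaSeq, a pooled yeast mating assay with surface-displayed partners. Pairs that bind mate more often; barcode pairs of the diploids are counted by sequencing. Read counts were normalised to the haploid input and turned into Kd by a linear fit to BCL2-family pairs of known affinity, for each replicate. The assay was run in six technical replicates.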

Variants are written as CDR1, CDR2 and CDR3 of the light chain (limits as in the source). Parent: KSSQSVLYESRNKNSVA, WASTRES, QQYHRLPLS.
This list holds designs with more than six substitutions.
Each Kd is an estimate from the mating assay, the geometric mean of the replicates in which the pair was seen; lower is stronger.
An entry "no signal" has no value in the source: the pair was not observed among the diploids in any replicate. This suggests poor binding but is not conclusive.
Empty control strains, which show no peptide, gave a signal in 4% of pairings with all light chain designs; the median was 430 nM and 95% of these signals were weaker than 38 nM. No background was subtracted.
The authors averaged sequences with at least three values out of six and counted those with two or fewer as poor binders.
The range of this assay differs from that of the first round, and the authors advise against merging the two.

For KLMQNKVHGATRQYNIA / ETTLVGQ / QQYFHLPFI [En_Gibbs], the assay gave 82 nM (5 of 6 replicates).
For SLSMNQGEESSVWENVA / QGDIAEN / QDYSRLPLI [En_Gibbs], the assay gave 64 nM (6 of 6 replicates).
For TLMQPQKELGMAKDNIA / DGSIRLG / QQYHRLPLV [En_Gibbs], the assay gave 8.1 nM (6 of 6 replicates).
For KISMLTTFESRNKNSVA / ENSTRES / QSYHRLPLS [En_HC], the assay gave 1.2 µM (2 of 6 replicates).
For KLSPSVMGWMRNKNSVA / NASTRMS / QQYHRLPLS [GP_Gibbs], the assay gave 4.0 nM (6 of 6 replicates).
For VLSASELYEDRPKNSVA / NASTRMS / QQYHRLPLS [GP_Gibbs], the assay gave 1.4 nM (6 of 6 replicates).
For TLTQVTMVESYNKNSVA / QASTRLE / QDYHRLPLS [En_HC], the assay gave 330 nM (5 of 6 replicates).
For TITGEQSMRTQGNWNIA / QAEQKVH / QQYDRLPLA [En_Gibbs], the assay gave 23 nM (6 of 6 replicates).
For KCYQSQDYESRNKNAVA / NASQREQ / QQYHRLPLS [GP_Gibbs], the assay gave 820 pM (6 of 6 replicates).
For KLSQSVNMTGKAKNSVA / ELSFREK / QQYERLPLS [En_HC], the assay gave 52 nM (6 of 6 replicates).
For KLHQSDGYESRNINSVA / NASQRCS / QQYHRLPLS [GP_Gibbs], the assay gave 480 pM (6 of 6 replicates).
For KISFQYRYEQLEKNSIA / EVQTRLK / QQYHRLPLS [En_HC], the assay gave 17 nM (6 of 6 replicates).
For MFSQLVYTGSRTKNAVA / QASTREN / QQYHHLPLS [En_HC], the assay gave 15 nM (6 of 6 replicates).
For KISMTTEMELKNRNSVA / ELVTRMS / QQYNRLPLS [En_Gen], the assay gave 2.3 nM (6 of 6 replicates).
For KITQLVMETSKSKNNVA / EVSTVPD / QQYHRLPLS [En_HC], the assay gave 20 nM (6 of 6 replicates).
For MFSQLTYTGSRARNAVA / QASTREN / QQYHHLPLM [En_HC], the assay gave 7.6 nM (6 of 6 replicates).
For KFQQSQLYEKRNQNSVA / SASYRLS / QQYHRLPLS [GP_Gibbs], the assay gave 11 nM (6 of 6 replicates).
For ALGDVTRMESNKKNSIA / DMSNREQ / QQYHRLPLS [En_HC], the assay gave 5.1 nM (4 of 6 replicates).
For KLQYLVLYGSRNKNSVA / NASTRLQ / QQYHRLPLS [GP_Gibbs], the assay gave 7.8 nM (6 of 6 replicates).
For MMSQVTGQGQRHRNNVA / QTSTREP / QQYDRLPLM [En_Gen], the assay gave 12 nM (6 of 6 replicates).
For HLSHSVDLESVHKNSIA / DLMTRES / QQYHRLPLS [En_HC], the assay gave 1.9 nM (6 of 6 replicates).
For MLSDLVKVGSRNTNSVA / DNSTRGS / QQYDRLPLS [En_HC], the assay gave 1.4 nM (6 of 6 replicates).
For KLSMSVRMETFVKDNVA / ENSTREA / QDYHRLPLS [En_HC], the assay gave 180 nM (1 of 6 replicates).
For KLSQSVLMESRMVNNVA / DASQREE / QQYHRLPLS [GP_Gibbs], the assay gave 1.1 nM (6 of 6 replicates).
For KISQSNLYESRNKNSIA / NANQREQ / QQYHRLPLS [GP_Gibbs], the assay gave 830 pM (6 of 6 replicates).
For KISMVMENQLKNRNSVA / ELVTRVN / QQYNRLPLS [En_Gen], the assay gave 5.0 nM (6 of 6 replicates).
For KLMQSLQGEPKDWYAIA / EGESATT / QQYARLPLM [En_Gibbs], the assay gave no signal (0 of 6 replicates).
For AISMHAFYGQRDENGIA / GADVRAK / QQYWRLPLT [En_Gibbs], the assay gave 4.1 nM (6 of 6 replicates).
For TISQSAQQESHNKNSVA / DLSVRGN / QQYDRLPLS [En_HC], the assay gave no signal (0 of 6 replicates).
For MVNSIMDHLSKQTNNVA / EMTTREE / QQYDRLPLS [En_Gen], the assay gave 14 nM (6 of 6 replicates).
For HISQSVGMTSRNKNSVA / ENTTRED / QQYDRLPLS [En_HC], the assay gave 100 nM (4 of 6 replicates).
For NLNDSPMYAQIMKDAIA / QETQRNE / QQYAKLPLS [En_Gibbs], the assay gave 15 nM (6 of 6 replicates).
For KFKQLFNMWARNHGNVA / DADERNV / QQYSRLPIS [En_Gibbs], the assay gave 6.4 nM (6 of 6 replicates).

Excerpt, the final 5 entries:

| CDR-L1 | CDR-L2 | CDR-L3 | group | Kd (apparent) | replicates with signal |
|---|---|---|---|---|---|
| TISQSAQQESHNKNSVA | DLSVRGN | QQYDRLPLS | En_HC | no signal | 0 of 6 |
| MVNSIMDHLSKQTNNVA | EMTTREE | QQYDRLPLS | En_Gen | 14 nM | 6 of 6 |
| HISQSVGMTSRNKNSVA | ENTTRED | QQYDRLPLS | En_HC | 100 nM | 4 of 6 |
| NLNDSPMYAQIMKDAIA | QETQRNE | QQYAKLPLS | En_Gibbs | 15 nM | 6 of 6 |
| KFKQLFNMWARNHGNVA | DADERNV | QQYSRLPIS | En_Gibbs | 6.4 nM | 6 of 6 |